# According to patent publication US8614182B2, “GLP-1 analogues and their pharmaceutical salts and uses” (Jiangsu Hansoh Pharmaceuticals Co., Ltd., priority 2009, dated 2013):
# Chains of the proteins cited; added tags and fusions are not shown. Residues count along the entry.
# UniProt P43220, 24-463, species assumed: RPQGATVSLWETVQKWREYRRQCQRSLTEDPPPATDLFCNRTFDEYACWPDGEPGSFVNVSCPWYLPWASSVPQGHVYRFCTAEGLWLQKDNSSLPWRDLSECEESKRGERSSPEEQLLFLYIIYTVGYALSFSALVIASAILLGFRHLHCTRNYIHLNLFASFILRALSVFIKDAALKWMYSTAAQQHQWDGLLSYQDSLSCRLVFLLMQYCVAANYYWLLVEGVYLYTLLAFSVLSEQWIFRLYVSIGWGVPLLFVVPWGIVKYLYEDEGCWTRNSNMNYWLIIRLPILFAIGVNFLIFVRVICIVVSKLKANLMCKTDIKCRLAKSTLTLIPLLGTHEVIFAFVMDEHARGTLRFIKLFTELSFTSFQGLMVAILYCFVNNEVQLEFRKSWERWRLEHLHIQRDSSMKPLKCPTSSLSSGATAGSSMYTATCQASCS
# Assays:
# [1] = biological target: T1, Glucagon-like peptide-1 receptor (GLP1R) (Homo sapiens, UniProt P43220); assay: Agonist activity on GLP1R, cAMP response element luciferase reporter gene in HEK293 cells; assay type: cell-based; details: HEK293 cells stably transfected with GLP1R and pCRE-Luc, 5 hours incubation; read-out: Maximum reaction rate
# T1 construct: expressed in transfected cells; host or cells: HEK293
# Excerpt: GLP1R is a receptor coupled with Gs protein, of which the binding with the agonists will result in an increase of intracellular cAMP concentration. In the present experiment, GLP1R and the luciferase reporter gene plasmid regulated by cAMP response elements are co-transfected into HEK293 cells. When the compound binds to the receptor and activates the receptors, the expression of the luciferase will increase. The activation status of the compound to GLP1R can be learned by testing the activity of the luciferase.
# 2. The compounds or positive drugs having a certain concentration gradient were added (3 wells per concentration) and incubated at 37° C. for 5 hours. The negative control was solvent DMSO.
# 3. 50 μl culture medium was taken from each well, and 50 μl of the luciferase substrate were added and vortexed for 10 minutes.
# 4. 80 μl reaction solution was taken and transferred to a white 96 well plate, then detected on the Invision microplate reader (enzyme-labelling measuring instrument).
# [2] = test system: db/db mice with type 2 diabetes; assay: Random blood glucose of db/db mice after single subcutaneous injection; assay type: in vivo; details: for random blood glucose: n = 8; for decrease rate of random blood glucose: versus control group; for random blood glucose level (words, test conclusions): single s.c., dose of 3 μg/kg (so in the source)
# Description: db/db mice with type 2 diabetes were divided into six groups based on a random blood glucose and body weight (8 per group). […] The random blood glucose of the mice is determined at differete time after administration.
# Preparation method: 1 bottle of the compound (2 mg/bottle) was dissolved with double-distilled water to prepare a colorless and transparent solution of which the concentration is 2 mg/mL. […] “ACCU-CHEK® Advantage” blood glucose meter form Roche was used to determine the blood glucose.
# Route and volume of administration: Single subcutaneous injection dose, dose volume was 5 mL/kg. […]
# The random blood glucoses of db/db mice were measured.
# Each group has 8 mice, half male and half female. The animals of each group were administered with the test compounds or solvent control respectively through single subcutaneous injection.
# [3] = 3 μg/kg single s.c., 1 h after administration, X ± s
# [4] = 3 μg/kg single s.c., 1 h after administration
# [5] = 3 μg/kg single s.c., 2 h after administration, X ± s
# [6] = 3 μg/kg single s.c., 2 h after administration
# [7] = 3 μg/kg single s.c., 4 h after administration, X ± s
# [8] = 3 μg/kg single s.c., 4 h after administration
# [9] = 3 μg/kg single s.c., 8 h after administration, X ± s
# [10] = 3 μg/kg single s.c., 8 h after administration
# [11] = 3 μg/kg single s.c., after 2 h and 4 h, P<0.05
# [12] = 3 μg/kg single s.c., after 8 hours
# [13] = 3 μg/kg single s.c., after one hour, P<0.05
# [14] = 3 μg/kg single s.c., before administration, X ± s
# [15] = 10 μg/kg single s.c., 1 h after administration
# [16] = 10 μg/kg single s.c., 1 h after administration, ± s
# [17] = 10 μg/kg single s.c., 2 h after administration
# [18] = 10 μg/kg single s.c., 2 h after administration, ± s
# [19] = 10 μg/kg single s.c., 4 h after administration
# [20] = 10 μg/kg single s.c., 4 h after administration, ± s
# [21] = 10 μg/kg single s.c., 8 h after administration
# [22] = 10 μg/kg single s.c., 8 h after administration, ± s
# [23] = 10 μg/kg single s.c., 24 h after administration
# [24] = 10 μg/kg single s.c., 24 h after administration, ± s
# [25] = 10 μg/kg single s.c., after 4 h and 8 h
# [26] = 10 μg/kg single s.c., after 24 hours
# [27] = 10 μg/kg single s.c., before administration, ± s
# [28] = 10 μg/kg single s.c., time not specified
smiles,measurement,setting,value
CCCCCCCCCCCCCCCC(=O)N[C@@H](CCCCNC(=O)[C@H](CO)NC(=O)[C@@H]1CCCN1C(=O)[C@@H]1CCCN1C(=O)[C@@H]1CCCN1C(=O)CN(C)C(=O)CNC(=O)[C@H](CCCCN)NC(=O)[C@H](CCCCN)NC(=O)CNC(=O)[C@H](CCCNC(=N)N)NC(=O)CNC(=O)[C@H](CCCCN)NC(=O)[C@@H](NC(=O)[C@H](CC(C)C)NC(=O)[C@H](Cc1c[nH]c2ccccc12)NC(=O)[C@@H](NC(=O)[C@@H](NC(=O)[C@H](Cc1ccccc1)NC(=O)[C@H](CCC(=O)O)NC(=O)[C@H](C)NC(=O)[C@H](C)NC(=O)[C@H](CCC(N)=O)NC(=O)CNC(=O)[C@H](CCC(=O)O)NC(=O)[C@H](CC(C)C)NC(=O)[C@H](Cc1ccc(O)cc1)NC(=O)[C@H](CO)NC(=O)[C@H](CO)NC(=O)[C@@H](NC(=O)[C@H](CC(=O)O)NC(=O)[C@H](CO)NC(=O)[C@@H](NC(=O)[C@H](Cc1ccccc1)NC(=O)[C@@H](NC(=O)CNC(=O)[C@H](CCC(=O)O)NC(=O)[C@H](C)NC(=O)[C@@H](N)Cc1c[nH]cn1)[C@@H](C)O)[C@@H](C)O)C(C)C)[C@@H](C)CC)C(C)C)C(C)C)C(=O)O [HS-20006],Emax,[1],87.4%
same,random blood glucose,[2]; [3],20.36 ± 1.25 mmol/L
same,decrease rate of random blood glucose,[2]; [4],14.25%
same,decrease rate of random blood glucose,"[2]; 3 μg/kg single s.c., 1 h after administration, listed as 20006",14.25%
same,random blood glucose,[2]; [5],19.91 ± 1.70 mmol/L
same,decrease rate of random blood glucose,[2]; [6],13.12%
same,random blood glucose,[2]; [7],19.58 ± 1.54 mmol/L
same,decrease rate of random blood glucose,[2]; [8],10.86%
same,random blood glucose,[2]; [9],24.30 ± 1.50 mmol/L
same,decrease rate of random blood glucose,[2]; [10],8.14%
same,random blood glucose values compared with those of the control group,[2]; [11],kept a lower level and had significant difference
same,random blood glucose values compared with those of the control group,[2]; [12],no significant difference
same,random blood glucose values compared with those of the control group,[2]; [13],decreased significantly
same,random blood glucose,[2]; [14],25.11 ± 1.49 mmol/L
same,decrease rate of random blood glucose,[2]; [15],38.12%
same,random blood glucose,[2]; [16],19.52 ± 1.72 mmol/L
same,decrease rate of random blood glucose,[2]; [17],27.66%
same,random blood glucose,[2]; [18],21.43 ± 1.49 mmol/L
same,decrease rate of random blood glucose,[2]; [19],29.78%
same,random blood glucose,[2]; [20],21.53 ± 1.67 mmol/L
same,decrease rate of random blood glucose,[2]; [21],23.72%
same,random blood glucose,[2]; [22],23.39 ± 1.55 mmol/L
same,decrease rate of random blood glucose,[2]; [23],13.66%
same,random blood glucose,[2]; [24],25.59 ± 1.74 mmol/L
same,random blood glucose values compared with those of the control group,[2]; [25],still kept at a lower level
same,random blood glucose values compared with those of the control group,[2]; [26],not significantly different
same,random blood glucose,[2]; [27],23.54 ± 1.39 mmol/L
same,random blood glucose values compared with those of the control group,[2]; [28],decreased immediately and significantly
same,"random blood glucose level (words, test conclusions)",[2],decreased obviously
CCCCCCCCCCCCCCCC(=O)N[C@@H](CCCCNC(=O)[C@H](CO)NC(=O)[C@@H]1CCCN1C(=O)[C@@H]1CCCN1C(=O)[C@@H]1CCCN1C(=O)CN(C)C(=O)CNC(=O)[C@H](CCCCN)NC(=O)[C@H](CCCCN)NC(=O)CNC(=O)[C@H](CCCNC(=N)N)NC(=O)CNC(=O)[C@H](CCCCN)NC(=O)[C@@H](NC(=O)[C@H](CC(C)C)NC(=O)[C@H](Cc1c[nH]c2ccccc12)NC(=O)[C@@H](NC(=O)[C@@H](NC(=O)[C@H](Cc1ccccc1)NC(=O)[C@H](CCC(=O)O)NC(=O)[C@H](C)NC(=O)[C@H](C)NC(=O)[C@H](CCC(N)=O)NC(=O)[C@H](CCC(=O)O)NC(=O)[C@H](CCC(=O)O)NC(=O)[C@H](CC(C)C)NC(=O)[C@H](Cc1ccc(O)cc1)NC(=O)[C@H](CO)NC(=O)[C@H](CO)NC(=O)[C@@H](NC(=O)[C@H](CC(=O)O)NC(=O)[C@H](CO)NC(=O)[C@@H](NC(=O)[C@H](Cc1ccccc1)NC(=O)[C@@H](NC(=O)CNC(=O)[C@H](CCC(=O)O)NC(=O)[C@H](C)NC(=O)[C@@H](N)Cc1c[nH]cn1)[C@@H](C)O)[C@@H](C)O)C(C)C)[C@@H](C)CC)C(C)C)C(C)C)C(=O)O [HS-20008],Emax,[1],88.5%
same,random blood glucose,[2]; [3],20.56 ± 1.30 mmol/L
same,decrease rate of random blood glucose,[2]; [4],13.90%
same,decrease rate of random blood glucose,"[2]; 3 μg/kg single s.c., 1 h after administration, listed as 20008",13.90%
same,random blood glucose,[2]; [5],20.81 ± 1.70 mmol/L
same,decrease rate of random blood glucose,[2]; [6],11.62%
same,random blood glucose,[2]; [7],19.30 ± 2.02 mmol/L
same,decrease rate of random blood glucose,[2]; [8],8.90%
same,random blood glucose,[2]; [9],22.41 ± 1.51 mmol/L
same,decrease rate of random blood glucose,[2]; [10],6.25%
same,random blood glucose values compared with those of the control group,[2]; [11],kept a lower level and had significant difference
same,random blood glucose values compared with those of the control group,[2]; [12],no significant difference
same,random blood glucose values compared with those of the control group,[2]; [13],decreased significantly
same,random blood glucose,[2]; [14],25.11 ± 1.58 mmol/L
same,decrease rate of random blood glucose,[2]; [15],35.49%
same,random blood glucose,[2]; [16],19.38 ± 1.83 mmol/L
same,decrease rate of random blood glucose,[2]; [17],25.79%
same,random blood glucose,[2]; [18],21.61 ± 1.68 mmol/L
same,decrease rate of random blood glucose,[2]; [19],27.33%
same,random blood glucose,[2]; [20],21.72 ± 1.63 mmol/L
same,decrease rate of random blood glucose,[2]; [21],22.57%
same,random blood glucose,[2]; [22],23.56 ± 1.80 mmol/L
same,decrease rate of random blood glucose,[2]; [23],14.58%
same,random blood glucose,[2]; [24],25.72 ± 1.69 mmol/L
same,random blood glucose values compared with those of the control group,[2]; [25],still kept at a lower level
same,random blood glucose values compared with those of the control group,[2]; [26],not significantly different
same,random blood glucose,[2]; [27],23.49 ± 1.49 mmol/L
same,random blood glucose values compared with those of the control group,[2]; [28],decreased immediately and significantly
same,"random blood glucose level (words, test conclusions)",[2],decreased obviously
